What was measured:
[1] = biological target: Adenosine receptor A1 (Homo sapiens) (UniProt P30542); assay: Binding affinity towards recombinant human Adenosine A1 receptor was determined using [3H]R-PIA (2.0 nM) as radioligand
[2] = biological target: Adenosine receptor A2a (Homo sapiens) (UniProt P29274); assay: Binding affinity towards recombinant human Adenosine A2a receptor was determined using [3H]CGS-21680 (10 nM) as radioligand
[3] = biological target: Adenosine receptor A3 (Homo sapiens) (UniProt P0DMS8); assay: Binding affinity towards human Adenosine A3 receptor stably transfected in CHO cells was determined using [125I]I-AB-MECA (1.0 nM) as radioligand; assay type: cell-based

Protein sequences, listed by entry. Tags and fused reporters are not part of them.
UniProt P30542, whole entry: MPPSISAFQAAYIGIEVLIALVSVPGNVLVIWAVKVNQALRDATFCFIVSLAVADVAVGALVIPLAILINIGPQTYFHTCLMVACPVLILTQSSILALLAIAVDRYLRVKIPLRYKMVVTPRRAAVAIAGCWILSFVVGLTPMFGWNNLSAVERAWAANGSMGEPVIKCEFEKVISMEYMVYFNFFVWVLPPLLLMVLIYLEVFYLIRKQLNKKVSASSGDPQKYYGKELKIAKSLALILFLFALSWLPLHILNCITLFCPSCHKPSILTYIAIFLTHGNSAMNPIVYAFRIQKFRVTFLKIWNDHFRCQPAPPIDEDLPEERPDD
UniProt P0DMS8, whole entry: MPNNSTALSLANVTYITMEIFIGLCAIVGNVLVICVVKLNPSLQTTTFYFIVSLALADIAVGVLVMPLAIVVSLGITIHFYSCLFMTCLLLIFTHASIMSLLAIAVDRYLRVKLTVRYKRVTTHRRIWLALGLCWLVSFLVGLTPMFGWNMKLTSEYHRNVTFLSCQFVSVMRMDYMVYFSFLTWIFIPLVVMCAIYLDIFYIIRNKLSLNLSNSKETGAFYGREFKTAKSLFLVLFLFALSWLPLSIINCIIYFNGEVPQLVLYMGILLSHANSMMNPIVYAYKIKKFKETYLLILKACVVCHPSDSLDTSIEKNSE

inhibition [1]	inhibition [2]	inhibition [3]	SMILES
< 3%	< 3%	9%	CNC(=O)C1OC(n2cnc3c(Nc4cccc(I)c4)ncnc32)C(O)C1NC(N)=O (configuration not stated)
< 3%	< 3%	8%	CNC(=O)C1OC(n2cnc3c(NC)nc(Cl)nc32)C(O)C1NC(N)=O (configuration not stated)
< 3%	3%	24%	CNC(=O)C1OC(n2cnc3c(Nc4cccc(I)c4)nc(Cl)nc32)C(O)C1NC(N)=O (configuration not stated)
< 3%	< 3%	< 3%	CNC(=O)C1OC(n2cnc3c(NC)ncnc32)C(O)C1NC(N)=O (configuration not stated)

From ChEMBL document CHEMBL1137867, “Design and synthesis of 3'-ureidoadenosine-5'-uronamides: effects of the 3'-ureido group on binding to the A3 adenosine receptor” (Bioorg Med Chem Lett, 2004)
